Amino acid sequences for entries named in this document (tags omitted). Residues count along the entry.
UniProt P07339, 65-412: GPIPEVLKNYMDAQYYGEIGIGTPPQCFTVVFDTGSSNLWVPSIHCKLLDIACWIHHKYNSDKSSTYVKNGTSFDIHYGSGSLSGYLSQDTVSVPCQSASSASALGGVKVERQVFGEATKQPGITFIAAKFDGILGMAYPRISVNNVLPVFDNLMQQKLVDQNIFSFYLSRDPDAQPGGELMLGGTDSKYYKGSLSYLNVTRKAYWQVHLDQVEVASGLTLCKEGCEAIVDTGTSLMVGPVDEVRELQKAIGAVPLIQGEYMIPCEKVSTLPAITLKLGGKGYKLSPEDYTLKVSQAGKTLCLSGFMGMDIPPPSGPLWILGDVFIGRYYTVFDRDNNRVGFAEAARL

In patent US10946383B2, “Oligonucleotide encoded chemical libraries” (Plexium, Inc., priority 2017, dated 2021):

Target: Cathepsin-D protease (Homo sapiens, UniProt P07339)
Assay: Cathepsin-D protease inhibition assay in picowells with bead-released compound and Peptide Q-Fluor substrate
Type: biochemical
Conditions: compound released from 10 μm TentaGel beads by UV (365 nm, 77 J/cm^2) to approximately 13 μM; 30 min, 37° C.

CC(C)CC(=O)N[C@H](C(=O)N[C@H](C(=O)N[C@@H](CC(C)C)[C@@H](O)CC(=O)N[C@@H](C)C(=O)N[C@@H](CC(C)C)[C@@H](O)CC(=O)O)C(C)C)C(C)C [positive control beads, Pepstatin-A]
Cathepsin-D inhibition (fluorescence of cleaved Peptide Q-Fluor substrate): strong inhibition
